Laboratory results from patent US5441883A, “A3 adenosine receptor, DNA, and uses” (priority 1993, dated 1995).

Protein sequences, listed by entry. Tags and fused reporters are not part of them.
UniProt P28647, whole entry: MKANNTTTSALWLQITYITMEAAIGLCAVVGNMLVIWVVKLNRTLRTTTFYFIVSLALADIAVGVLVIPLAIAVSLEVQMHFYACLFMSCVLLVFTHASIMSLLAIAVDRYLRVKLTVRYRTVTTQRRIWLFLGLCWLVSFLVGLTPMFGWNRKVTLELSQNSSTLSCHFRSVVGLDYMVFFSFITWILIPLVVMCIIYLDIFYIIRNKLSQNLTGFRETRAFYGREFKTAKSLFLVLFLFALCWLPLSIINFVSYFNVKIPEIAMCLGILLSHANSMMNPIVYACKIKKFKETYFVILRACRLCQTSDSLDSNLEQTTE

Tests used:
A3 adenosine receptor [1] = target: T1, A3 adenosine receptor (Rattus norvegicus, UniProt P28647); format: binding; settings: rank order
Protocol: FIGS. 4A and 4B illustrates competitive binding assays using stably transfected CHO cell membrane preparations.
Cell membranes were prepared as follows. COS-7 cells (transient expressors) were harvested 48 hrs after transfection, whereas CHO cells (stable expressors) were grown to confluence in 150 mm plates. Cells were washed twice with ice-cold HOB buffer [15 mM Tris-HCl (pH 7.4), 5 mM MgCl2, 1 mM EDTA] and scraped off plates with a rubber policeman. Cells were then collected by centrifugation at 1,200 rpm (xx g), resuspended in HOB buffer, transferred to a Dounce homogenizer on ice, and homogenized for 20 sec with a CorTarge homogenizer (Eberbach Inc., Ann Arbor, Mich.) at the #3 speed setting. The homogenate was then centrifuged at 2,000 rpm (xx g) for 10 min at 4° C. […] The protein concentration was measured according to the method of Lowry et al. (1954, J. Biol. Chem. 207: 1-XXX) using bovine serum albumin as a standard.
Radioligand binding assays were carried out in duplicate in 500 μl of a solution containing (at final concentrations) 50 mM Tris-HCl (pH 7.4), 5 mM MgCl2, 1 mM EDTA, 0.025 % ascorbic acid, radioligands, and appropriate drugs. […] Nonspecific binding was determined in the presence of 10 μM R-N^6 -phenyl-2-propyladenosine (R-PIA). […] Radioactivity retained on the filters were counted using a Beckman LS6800 scintillation counter (Beckman Instruments, Palo Alto, Calif.). […]

A3 adenosine receptor [2] = target: T1, A3 adenosine receptor; format: cell-based
Protocol: The concentrations of adenosine agonists used are 100 nM and the concentration of forskolin is 1 μM. Values are obtained from triplicate plates and shown as mean ±S.E.
The cell were not or pretreated with 100 ng/ml pertussis toxin for 18 hours. The concentration of forskolin and adenosine agonists used are as in FIG. 5.
It is known that the A 1 adenosine receptor inhibits adenylate cyclase activity and the A2 adenosine receptor stimulates adenylate cyclase respectively (Stiles, ibid.; Williams, ibid.).
Cells were grown to about 80% confluence in 150 mm dishes, washed twice with Ca^++ and Mg^++ -free PBS buffer and detached from plates with PBS buffer containing 0.02% EDTA. Cells were collected by centrifugation at 800 rpm (xx g) for 10 min at 4° C. and resuspended in an appropriate volume of KRH buffer [140 mM NaCl, 5 mM KCl , 2 mM CaCl2, 1.2 mM MgSO4, 1.2 mM KH2 PO4, 6 mM glucose, 25 mM Hepes-NaOH (pH 7.4)]. The cells were washed once with KRH buffer and resuspended in KRH buffer at a concentration of 10^7 cells/ml. Each of 100 μl aliquots of this cell suspension were added to a glass tube containing 100 μl KRH+200 μM Ro 20-1724 and incubated at 37° C. for 10 min. Prewarmed 200 μl KRH containing 200 μm Ro 20-1724 and test drugs were then added to the cells and mixed. After incubation at 37° C. for 20 min, 400 μl 10.5 mM NaAc (pH 6.2) were added and the glass tubes transferred to a boiling water bath. The incubated cell suspension were boiled for 20 min, and the tubes were then cooled to room temperature and centrifuged at 3000 rpm (xx g) for 15 min.
For experiments using pertussis toxin pretreatment, aseptic pertussis toxin (Sigma Chemical Co., St. Louis, Mo.) was dissolved in sterile water and added to the medium to a final concentration of 100 ng/ml. Toxin treatment was maintained for approximately 18 hours. The dishes were rinsed once with media immediately prior to the addition of adenosine receptor ligands and processed as described above.

A3 adenosine receptor [3] = target: T1, A3 adenosine receptor; settings: transiently transfected COS-7 cell membranes
Protocol: The entire coding region of the A3 cDNA insert from R226 was excised from pGem226 and subcloned into either the HindIII/XbaI sites of an RC-RSV expression vector (Invitrogene, San Diego, Calif.) or the HindIII/SmaI sites of pBC12BI (Cullen, 1987, Meth. Enzym. 152: 684-704). The resulting plasmids were called Rc-RSV226 and pBC226 respectively. For transient expression in COS-7 cells, pBC226 plasmid DNA was prepared in large-scale through one cycle of CsCl gradient ultracentrifugation and 45 μg pBC226 DNA were transfected into each 150mm dish of COS-7 cells according to the method of Chen and Okayama (1987, Molec. Cell Biol. 7: 2745-2752). […]
Cell membranes were prepared as follows. […] The protein concentration was measured according to the method of Lowry et al. (1954, J. Biol. Chem. 207: 1-XXX) using bovine serum albumin as a standard.
Radioligand binding assays were carried out in duplicate in 500 μl of a solution containing (at final concentrations) 50 mM Tris-HCl (pH 7.4), 5 mM MgCl2, 1 mM EDTA, 0.025 % ascorbic acid, radioligands, and appropriate drugs. […] Nonspecific binding was determined in the presence of 10 μM R-N^6 -phenyl-2-propyladenosine (R-PIA). […]

CCNC(=O)[C@H]1O[C@@H](n2cnc3c(N)ncnc32)[C@H](O)[C@@H]1O [NECA, N-ethyladenosine-5'-uronic acid]
pharmacological profile of inhibition of [125I]APNEA binding (A3 adenosine receptor [1]): R-PIA=NECA>S-PIA>adenosine>ATP=ADP | inhibitory effect of R-PIA and NECA on forskolin-stimulated cAMP production after pertussis toxin pretreatment (A3 adenosine receptor [2]): almost completely abolished | inhibition of forskolin-stimulated cAMP accumulation (A3 adenosine receptor [2]; 1 μM forskolin, 100 nM agonist): 20-50% | maximum inhibition of cAMP production (A3 adenosine receptor [2]; of control values): 40-50% | radioligand binding (A3 adenosine receptor [3]): saturable and high affinity radioligand binding
